Measured values from PMC8016950, “Effective rational humanization of a PASylated anti-galectin-3 Fab for the sensitive PET imaging of thyroid cancer in vivo” (Scientific Reports, 2021).
Where “and” joins values, the source holds several entries; their conditions need not be identical. Identical values can stand only once.

Sequences of proteins named here, by UniProt entry; tags and fusion partners are left off. A change or cut given only in a name is not applied to a line headed by its entry.
UniProt P17931, whole entry: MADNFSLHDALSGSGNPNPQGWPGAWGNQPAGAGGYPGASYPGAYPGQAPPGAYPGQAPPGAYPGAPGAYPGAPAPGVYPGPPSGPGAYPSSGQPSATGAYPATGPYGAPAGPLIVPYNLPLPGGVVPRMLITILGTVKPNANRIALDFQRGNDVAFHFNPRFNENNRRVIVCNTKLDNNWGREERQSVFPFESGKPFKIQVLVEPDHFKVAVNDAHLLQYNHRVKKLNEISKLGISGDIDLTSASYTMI

T1: hGal3 ND 8mer SPOT peptide no. 24 (Homo sapiens, UniProt P17931, N-terminal acetyl; C-terminus bound to a Gly-PEG500-derivatised cellulose membrane)
T1 construct: 8mer of the N-terminal domain of human galectin-3; contains the motif Ala-Pro-Pro-Gly-Ala-Tyr; also called spot no; 24; source: synthetic peptide, SPOT synthesis on cellulose membrane
T1 chain: GQAPPGAY

T2: hGal3 ND 8mer SPOT peptide no. 29 (Homo sapiens, UniProt P17931, N-terminal acetyl; C-terminus bound to a Gly-PEG500-derivatised cellulose membrane)
T2 construct: 8mer of the N-terminal domain of human galectin-3; contains the motif Ala-Pro-Pro-Gly-Ala-Tyr; also called spot no; 29; source: synthetic peptide, SPOT synthesis on cellulose membrane
T2 chain: QAPPGAYP

T3: hGal3 ND 8mer SPOT peptide no. 25 (Homo sapiens, UniProt P17931, N-terminal acetyl; C-terminus bound to a Gly-PEG500-derivatised cellulose membrane)
T3 construct: 8mer of the N-terminal domain of human galectin-3; contains the motif Ala-Pro-Pro-Gly-Ala-Tyr; also called spot no; 25; source: synthetic peptide, SPOT synthesis on cellulose membrane
T3 chain: APPGAYPG


Legend:
[1] = target: T4, full length human galectin-3 (hGal3), Cys173 mutated to Thr (Homo sapiens, UniProt P17931, Cys173 mutated to Thr); test: ELISA; recombinant hGal3 immobilized on a microtiter plate; dilution series of Fab; detection with goat anti-human-kappa-light-chain-IgG alkaline phosphatase conjugate; settings: both partners purified
T4 construct: human galectin-3, UniProtKB P17931, full length, unpaired Cys173 mutated to Thr; also called recombinant hGal3; full length recombinant hGal3

[2] = target: T4, full length human galectin-3 (hGal3), …; test: SPR; Fab immobilized, hGal3 as analyte at increasing concentrations (single cycle kinetics); 1:1 binding model; settings: both partners purified
[3] = target: T5, hGal3 on FRO82-1 thyroid cancer cells (Homo sapiens (FRO82-1 cells), UniProt P17931); test: radioligand binding; saturation binding assay of the ^89Zr radiotracer on FRO82-1 cells; triplicate; settings: one partner purified
T5 construct: human galectin-3 as expressed by the anaplastic thyroid cancer cell line FRO82-1; also called hGal3 antigen at the cell surface; FRO82-1 TC cells (RRID: CVCL_6287); source: endogenous, on FRO82-1 anaplastic thyroid cancer cells

[4] = target: T1, hGal3 ND 8mer SPOT peptide no. 24; test: peptide or protein array; SPOT array of N-acetylated 8mer peptides of the hGal3 ND on cellulose membrane; chimeric αhGal3-Fab-PAS200-Cy5.5, 2 µg ml^−1 in PBS/T0.01, 1 h, room temperature; fluorescence read-out; settings: both partners purified
[5] = target: T2, hGal3 ND 8mer SPOT peptide no. 29; test: as above; settings: both partners purified
[6] = target: T3, hGal3 ND 8mer SPOT peptide no. 25; test: as above; settings: both partners purified

| Binder | Kd [1] | further results |
| --- | --- | --- |
| single point mutant "4NRY"(E46K) of the humanized αhGal3-Fab (Fab, V domains shown) VH: QIQLVQSGAEVKKPGESLKISCKVSGYTFTDYAIHWVRQMPGKGLKWMGWINTYTGKPIYADDFKGQVIISLDKSINTAYLQWSSLKASDTAIYYCARGTMMASLDYWGQGTTVTVSS VL: DVVLTQSPSSLSASVGDRVTITCKSSQSLVHSDGKTYLSWIQQKPGKAPKGLIYLVSKLDSGVPSRFSGSGSETDFTLTISSLQPEDSATYYCWQATHFPLTFGPGTKVDIR | 1.3 nM | – |
| GaletuzuFab-PAS200-Cy7 (Fab, V domains shown) VH: QIQLVQSGAEVKKPGESLKISCKVSGYTFTDYAIHWVRQMPGKGLKWMGWINTYTGKPIYADDFKGQVIISLDKSINTAYLQWSSLKASDTAIYYCARGTMMASLDYWGQGTTVTVSS VL: DVVMTQSPSSLSASVGDRVTITCKSSQSLVHSDGKTYLSWIQQKPGKAPKGLIYLVSKLDSGVPSRFSGSGSETDFTLTISSLQPEDSATYYCWQATHFPLTFGPGTKVDIR | 1.6 nM | – |
| GaletuzuFab-PAS200-Dfo (Fab, V domains shown) VH: QIQLVQSGAEVKKPGESLKISCKVSGYTFTDYAIHWVRQMPGKGLKWMGWINTYTGKPIYADDFKGQVIISLDKSINTAYLQWSSLKASDTAIYYCARGTMMASLDYWGQGTTVTVSS VL: DVVMTQSPSSLSASVGDRVTITCKSSQSLVHSDGKTYLSWIQQKPGKAPKGLIYLVSKLDSGVPSRFSGSGSETDFTLTISSLQPEDSATYYCWQATHFPLTFGPGTKVDIR | 1.9 nM | – |
| GaletuzuFab (final humanized αhGal3-Fab: "4NRY" with Lys(H46) and Met(L4)) (Fab, V domains shown) VH: QIQLVQSGAEVKKPGESLKISCKVSGYTFTDYAIHWVRQMPGKGLKWMGWINTYTGKPIYADDFKGQVIISLDKSINTAYLQWSSLKASDTAIYYCARGTMMASLDYWGQGTTVTVSS VL: DVVMTQSPSSLSASVGDRVTITCKSSQSLVHSDGKTYLSWIQQKPGKAPKGLIYLVSKLDSGVPSRFSGSGSETDFTLTISSLQPEDSATYYCWQATHFPLTFGPGTKVDIR | 1.3 nM | Kd [2]: 0.34 nM |
| humanized αhGal3-Fab version "4NRY" (CDRs of M3/38 grafted on the framework of human mAb m66) (Fab, V domains shown) VH: QIQLVQSGAEVKKPGESLKISCKVSGYTFTDYAIHWVRQMPGKGLEWMGWINTYTGKPIYADDFKGQVIISLDKSINTAYLQWSSLKASDTAIYYCARGTMMASLDYWGQGTTVTVSS VL: DVVLTQSPSSLSASVGDRVTITCKSSQSLVHSDGKTYLSWIQQKPGKAPKGLIYLVSKLDSGVPSRFSGSGSETDFTLTISSLQPEDSATYYCWQATHFPLTFGPGTKVDIR | 2.3 nM and 3.6 nM | – |
| single point mutant "4NRY"(L4M) of the humanized αhGal3-Fab (Fab, V domains shown) VH: QIQLVQSGAEVKKPGESLKISCKVSGYTFTDYAIHWVRQMPGKGLEWMGWINTYTGKPIYADDFKGQVIISLDKSINTAYLQWSSLKASDTAIYYCARGTMMASLDYWGQGTTVTVSS VL: DVVMTQSPSSLSASVGDRVTITCKSSQSLVHSDGKTYLSWIQQKPGKAPKGLIYLVSKLDSGVPSRFSGSGSETDFTLTISSLQPEDSATYYCWQATHFPLTFGPGTKVDIR | 1.5 nM | – |
| GaletuzuFab-PAS200-Dfo-^89Zr (Fab, V domains shown) VH: QIQLVQSGAEVKKPGESLKISCKVSGYTFTDYAIHWVRQMPGKGLKWMGWINTYTGKPIYADDFKGQVIISLDKSINTAYLQWSSLKASDTAIYYCARGTMMASLDYWGQGTTVTVSS VL: DVVMTQSPSSLSASVGDRVTITCKSSQSLVHSDGKTYLSWIQQKPGKAPKGLIYLVSKLDSGVPSRFSGSGSETDFTLTISSLQPEDSATYYCWQATHFPLTFGPGTKVDIR | – | Kd [3]: 15 nM |
| chimeric αhGal3-Fab (rat V-regions of mAb M3/38, human constant domains) (Fab, V domains shown) VH: QIQLVQSGPELKKPGESVKISCKASGYTFTDYAIHWVKQAPGKGLKWMGWINTYTGKPIYADDFKGRFVFSLEASASTANLQISNLKNEDTATYLCARGTMMASLDYWGQGVMVTVSS VL: DVVMTQTPVSLSLAIGQPASISCKSSQSLVHSDGKTYLSWILQRPGQSPKGLIYLVSKLDSGVPDRFSGSGSETEFTLKISRVEAEDLGVYYCWQATHFPLTFGSGTKLEIK | 1.3 nM and 1.2 nM | Kd [2]: 0.29 nM |
| chimeric αhGal3-Fab-PAS200-Cy5.5 (Fab, V domains shown) VH: QIQLVQSGPELKKPGESVKISCKASGYTFTDYAIHWVKQAPGKGLKWMGWINTYTGKPIYADDFKGRFVFSLEASASTANLQISNLKNEDTATYLCARGTMMASLDYWGQGVMVTVSS VL: DVVMTQTPVSLSLAIGQPASISCKSSQSLVHSDGKTYLSWILQRPGQSPKGLIYLVSKLDSGVPDRFSGSGSETEFTLKISRVEAEDLGVYYCWQATHFPLTFGSGTKLEIK | – | binding result [4]: binds; binding result [5]: binds; binding result [6]: binds |
